Measured values published in PubChem BioAssay AID504444 (National Center for Advancing Translational Sciences (NCATS), 2011).
The entries are a selection whose mix differs from that of the whole data set. Records with an inconclusive call do not appear. Calls of active or inactive are those of the source. Calls come from the whole dose curve; as a rule, active = well fitted inhibition curve with a large enough effect; inconclusive = small, poorly fitted or top-dose-only effect, or effect the other way; inactive = flat fitted curve, though single readings scatter.

Test: Nrf2 qHTS screen for inhibitors; note: nearly all actives have a fitted effect of over 60% in size
Details: A549 ARE-Fluc reporter, luciferase luminescence, 18-24 h; series mostly up to 46 µM; activity change, negative = inhibition: at the top concentration
% is set by controls: 0 for no effect and ±100 for the full control effect; potency is the fitted concentration of half-maximal effect.

| SMILES | activity change, negative = inhibition | Potency |
| --- | --- | --- |
| COc1ccc(C2=NCC(CBr)S2)cc1 (centres undefined) | inactive: 0% |  |
| Cc1ccc(NP(=O)(Oc2ccccc2)Oc2ccccc2)nc1 | inactive: -16.9% |  |
| O=[N+]([O-])c1cc([N+](=O)[O-])c(CCNc2ccccc2)c([N+](=O)[O-])c1 | inactive: 8.82% |  |
| CCc1nc2c(n1)c1c(non1O)c1c2no[n+]1[O-] | inactive: 3.07% |  |
| CC(=O)N1C2C3N(C(C)=O)C1C1N(C(C)=O)C(C(N1C(C)=O)N3C(C)=O)N2C(C)=O | inactive: -1.69% |  |
| O=[N+]([O-])c1cccc2n[nH]nc12 | inactive: -14.2% |  |
| CCN(/C(=N/P(=O)(N1CCOCC1)N1CCOCC1)N1CCOCC1)c1ccc(OC)cc1 | inactive: 19% |  |
| Nc1ccc([As](=O)(O)c2ccc(N)cc2)cc1 | inactive: 2.25% |  |
| C[N+]1=C2C=CC=CC=C2SC12C([N+](=O)[O-])=CC([N+](=O)[O-])=C[C-]2[N+](=O)[O-] (centres undefined) | inactive: -104% |  |
| CC1CCN(C(=O)Oc2c(Cl)cc(Cl)c3cccnc23)CC1 | inactive: 4.03% |  |
| CC(C)=N/N=C(\N)N[N+](=O)[O-] | inactive: 14.1% |  |
| CN(C)C(=O)OCCc1n(C)cc[n+]1C | inactive: 2.66% |  |
| O=P1(N(CCCl)CCCl)OCCCS1 (centres undefined) | inactive: -5.59% |  |
| O=P(/N=c1/nc(-c2ccccc2)n(-c2ccccc2)s1)(Nc1ccccc1)Nc1ccccc1 | inactive: 6.63% |  |
| O=C(Nc1cc([As](=O)(O)O)ccc1O)c1ccccc1 | inactive: -27.7% |  |
| O=[N+]([O-])c1ncn(CCn2ncnc2[N+](=O)[O-])n1 | inactive: 9.54% |  |
| CC(C)(C)C(=O)NC(Sc1ccncn1)C(Cl)(Cl)Cl (centres undefined) | inactive: 10.1% |  |
| O=C(O)CNc1ccc([As](=O)(O)O)cc1 | inactive: 10.8% |  |
| COC(=O)C1(C)COP(=O)(Nc2ccccc2)OC1 (centres undefined) | inactive: -0.915% |  |
| O=[N+]([O-])c1cccc(NC2=NCC(CBr)S2)c1 (centres undefined) | inactive: 3.73% |  |
| CC(=O)Nc1ccc([As](=O)(O)O)cc1 | inactive: -3.61% |  |
| O=C(O)c1ccccc1[As](=O)(O)O | inactive: -6.1% |  |
| CCCC1OP(N)(=O)OCC1CC (centres undefined) | inactive: -5.05% |  |
| Cc1cc(SC(NC(=O)c2ccc(F)cc2)C(Cl)(Cl)Cl)ncn1 (centres undefined) | inactive: 16.3% |  |

| SMILES | activity change, negative = inhibition | Potency |
| --- | --- | --- |
| CCOP(=O)(Nc1ccccc1)OCC | inactive: 8.12% |  |
| Cc1ccc(NP(=O)(Oc2ccccc2F)Oc2ccccc2F)nc1 | inactive: 7.03% |  |
| Nc1cccc2ccc([As](=O)(O)O)cc12 | inactive: 0.608% |  |
| Cc1ccc(N/C(=N/P(=O)(N2CCOCC2)N2CCOCC2)N2CCOCC2)cc1 | inactive: -5.79% |  |
| NC(=O)c1cc([N+](=O)[O-])cc([N+](=O)[O-])c1N | inactive: 0.749% |  |
| CN1CCCC(OC(=O)C(c2ccccc2)c2ccccc2)C1 (centres undefined) | inactive: 24.8% |  |
| Clc1ccc(Cl)c(NC2=NCC(CBr)S2)c1 (centres undefined) | inactive: -12.4% |  |
| COc1ccccc1OP(=O)(Nc1ccc(C)cn1)Oc1ccccc1OC | inactive: 8.68% |  |
| Cc1ccc(OP(=O)(Nc2nccs2)Oc2ccc(C)cc2)cc1 | inactive: -0.128% |  |
| Oc1ccccc1CNc1ccccn1 | inactive: 0.745% |  |
| O=C(NC(Sc1ccncn1)C(Cl)(Cl)Cl)c1ccccc1 (centres undefined) | inactive: -5.34% |  |
| Nc1cc(N)c2nonc2c1[N+](=O)[O-] | inactive: -13.5% |  |
| CC(C)CC(=O)NC(Sc1ccc(Cl)cc1)C(Cl)(Cl)Cl (centres undefined) | inactive: -4.6% |  |
| O=P1(Nc2nc3ccc(Cl)cc3s2)COc2ccccc2O1 (centres undefined) | inactive: 2.83% |  |
| CC(C)(C)C(=O)NC(Sc1ccccc1)C(Cl)(Cl)Cl (centres undefined) | inactive: 4.11% |  |
| CCc1cc(O)c([N+](=O)[O-])c(C)c1[N+](=O)[O-] | inactive: -3.24% |  |
| Cc1ccccc1CN(C)C(=O)COC(=O)C(O)(c1ccccc1)c1ccccc1 | inactive: 12.8% |  |
| C[C@H]1OP(=O)(Oc2ccccc2)C[C@@H]2O[C@@H]21 (some centres undefined) | inactive: 9.66% |  |
| C[C@@H]1C=CCP(=O)(Oc2ccccc2)O1 (some centres undefined) | inactive: 1.13% |  |
| CC(=O)c1ccc(N2CC2c2ccncc2)cc1 (centres undefined) | inactive: 4.49% |  |
| N#C/C(=C\c1ccc(N(CCBr)CCBr)cc1)C(N)=O |  | active: 25.9 µM |
| COC(=O)C1(C)COP(=O)(NCc2ccccc2)OC1 (centres undefined) | inactive: 13.9% |  |
| CC(=O)Nc1ccc([As](=O)(O)O)c(O)c1 | inactive: 6.32% |  |
| CC(=O)Nc1ccc(Oc2c([N+](=O)[O-])cc([N+](=O)[O-])cc2[N+](=O)[O-])cc1 | inactive: 0% |  |

| SMILES | activity change, negative = inhibition | Potency |
| --- | --- | --- |
| c1ccc(-c2nn[nH]n2)c(-c2nn[nH]n2)c1 | inactive: -7.52% |  |
| Cc1ccc(NP(=O)(Oc2cccc(C)c2)Oc2cccc(C)c2)nc1 | inactive: 1.03% |  |
| O=C(NC1CCS(=O)(=O)C1)NP(=S)(Oc1ccccc1)Oc1ccccc1 (centres undefined) | inactive: 2.58% |  |
| CCNC(=S)/N=C(\N)N[N+](=O)[O-] | inactive: -4.77% |  |
| O=P1(N(CCCl)CCCl)OCCC2CCCCN21 (centres undefined) | inactive: 0.852% |  |
| O=C(OC1CN2CCC1CC2)c1ccccc1 (centres undefined) | inactive: 4.17% |  |
| CCC(=O)N1C2C3N(C(=O)CC)C1C1N(C(=O)CC)C(C(N1C(=O)CC)N3C(=O)CC)N2C(=O)CC | inactive: 11.9% |  |
| COC(=O)c1cc2c(s1)N=C(c1ccccc1)N(C)P2(=O)N1CCOCC1 (centres undefined) | inactive: 7.27% |  |
| CC(=O)NC(SC(=S)N(CC(C)C)CC(C)C)C(Cl)(Cl)Cl (centres undefined) | inactive: 5.93% |  |
| CC(NC(=O)COC(=O)C(O)(c1ccccc1)c1ccccc1)c1ccccc1 (centres undefined) | inactive: -1.89% |  |
| Cc1ccccc1OP(=O)(Nc1ccccn1)Oc1ccccc1C | inactive: -23.8% |  |
| CN(C)C(=O)Oc1noc2ccccc12 | inactive: -5.47% |  |
| CN(C)C1(CNC(=O)c2ccc(Cl)c(S(N)(=O)=O)c2)CCCCC1 | inactive: 3.48% |  |
| O=P(Nc1ccccn1)(c1ccc(Br)cc1)c1ccc(Br)cc1 | inactive: 9.04% |  |
| O=P(Nc1nc2ccccc2s1)(c1ccccc1)c1ccccc1 | inactive: 7.39% |  |
| C[C@H]1OP(=O)(Oc2ccccc2)[C@H](O)[C@H](O)[C@H]1N=[N+]=[N-] (some centres undefined) | inactive: -0.511% |  |
| O=[As](O)(c1ccccc1)c1ccc(O)cc1 | inactive: 7.35% |  |
| O=[N+]([O-])c1ncn(CCn2cnc([N+](=O)[O-])n2)n1 | inactive: 8.71% |  |
| CC(=O)NC(SC(=S)N(C)C)C(Cl)(Cl)Cl (centres undefined) | inactive: 7.8% |  |
| O=[N+]([O-])c1ccc(O)c(/C=N/Nc2ccc([N+](=O)[O-])cc2[N+](=O)[O-])c1 | inactive: -3.87% |  |
| O=C(OC1CN2CCC1CC2)c1cccc(Cl)c1 (centres undefined) | inactive: 17% |  |
| C(Cc1nn[nH]n1)Cc1nn[nH]n1 | inactive: 5.01% |  |
| Nc1ccc([As](=O)(O)c2ccc([N+](=O)[O-])cc2)cc1 | inactive: -8.78% |  |
| O=P(Nc1nccs1)(c1ccccc1)c1ccccc1 | inactive: 21.8% |  |

| SMILES | activity change, negative = inhibition | Potency |
| --- | --- | --- |
| CC(C)C(=O)NC(Sc1ccccc1)C(Cl)(Cl)Cl (centres undefined) | inactive: -3.25% |  |
| c1nnnn1CCn1cnnn1 | inactive: -8.63% |  |
| CCC1=CC2Cc3nc4ccc(Cl)cc4c(N)c3C(C1)C2 (centres undefined) | inactive: -5.01% |  |
| O=P1(Nc2ccccn2)COc2ccccc2OC1 | inactive: 13.1% |  |
| CCOP(=O)(NC(=NC(C)c1ccccc1)NC(C)c1ccccc1)OCC (centres undefined) | inactive: -12.6% |  |
| CCOP(=O)(Nc1ccc(C)cn1)OCC | inactive: 4.92% |  |
| CN(CCCl)Cc1cc(Cl)c(NC2=NCCN2)c(Cl)c1 | inactive: 2.51% |  |
| Clc1n[nH]nc1-c1nn[nH][15n]1 | inactive: 0.0124% |  |
| CC(C)(C)C(=O)NC(Sc1ncccn1)C(Cl)(Cl)Cl (centres undefined) | inactive: 3.86% |  |
| COc1ccccc1CNC(=O)COC(=O)C(O)(c1ccccc1)c1ccccc1 | inactive: 11.9% |  |
| CC1(CBr)Cn2c(nc3ccccc3c2=O)S1 (centres undefined) | inactive: -5.18% |  |
| Cc1nn(-c2ccccc2)c2c1P(=O)(N1CCOCC1)N(C)C(c1ccccc1)=N2 (centres undefined) | inactive: 9.54% |  |
| Cc1ccc(C(=O)OC2CN3CCC2CC3)cc1 (centres undefined) | inactive: 8.11% |  |
| CC1CCC(C(C)C)C(OP(=O)(Nc2ccccn2)c2ccccc2)C1 (centres undefined) |  | active: 14.6 µM |
| CN(C)C1(CNC(=O)c2ccc(S(C)(=O)=O)cc2)CCCCC1 | inactive: -11.3% |  |
| O=C(/C=C/c1ccccc1)OC1CN2CCC1CC2 (centres undefined) | inactive: 13.4% |  |
| CCCC1OP(=O)(Nc2ccccc2)OCC1CC (centres undefined) | inactive: -0.903% |  |
| O=P1(Nc2ncccn2)COc2ccccc2OC1 | inactive: 4.14% |  |
| Nc1cccc([As](=O)(O)c2ccccc2)c1 | inactive: -1.5% |  |
| O=[As](O)(c1cccs1)c1cccs1 | inactive: -1.77% |  |
| Cc1ccc(OCC(=O)OC2CN3CCC2CC3)cc1 (centres undefined) | inactive: 6.84% |  |
| NS(=O)(=O)c1cccc(NC(=O)COC(=O)C(O)(c2ccccc2)c2ccccc2)c1 | inactive: 4.12% |  |
| O=P1(Nc2ccc(Br)cn2)COc2ccccc2OC1 | inactive: -5.44% |  |
| CCOP1(=S)c2c(C)nn(CCC#N)c2N=C(c2ccccc2F)N1C (centres undefined) | inactive: 11.1% |  |

| SMILES | activity change, negative = inhibition | Potency |
| --- | --- | --- |
| O=P(Nc1nccs1)(Oc1ccccc1)Oc1ccccc1 | inactive: -13.5% |  |
| O=P(Nc1nccs1)(c1ccccc1)c1nc2ccccc2s1 (centres undefined) | inactive: 27.5% |  |
| CS(=O)(=O)c1cc([N+](=O)[O-])c2no[n+]([O-])c2c1 | inactive: -4.85% |  |
| O=C(O)COc1ccc([As](=O)(O)O)cc1[N+](=O)[O-] | inactive: 8.91% |  |
| Nc1ccccc1[As](=O)(O)c1ccccc1 | inactive: -12.8% |  |
| NC(=O)Nc1ccc([As](=O)(O)O)cc1 | inactive: -5.87% |  |
| N#CCCN(C(=O)COC(=O)C(O)(c1ccccc1)c1ccccc1)c1ccc(F)cc1 | inactive: 10.2% |  |
| CCOP1(=S)c2c(C)nn(CCC#N)c2N=C(c2ccc(F)cc2)N1C (centres undefined) | inactive: -18% |  |
| CN(C(=O)Cc1ccccc1)[C@@H]1CC[C@]2(CCCO2)C[C@H]1N1CCCC1 | inactive: 5.15% |  |
| CN(C)C(=O)c1cc([N+](=O)[O-])cc2c1-c1c(cc([N+](=O)[O-])cc1[N+](=O)[O-])C2=O | inactive: -27.1% |  |
| CN(C(=O)Cc1ccc(Cl)c(Cl)c1)[C@H]1CC[C@@]2(CCCO2)C[C@@H]1N1CCCC1 | inactive: -0.585% |  |
| O=C(OC1CN2CCC1CC2)c1ccc(Cl)cc1 (centres undefined) | inactive: -10.3% |  |
| O=[As](O)(O)c1cccnc1 | inactive: 9.23% |  |
| COc1cc(C(=O)NCC2(N3CCOCC3)CCCCC2)cc(Cl)c1OC(C)C | inactive: 3.33% |  |
| CS(=O)(=O)c1ccc(Cl)c(NC(=O)COC(=O)C(O)(c2ccccc2)c2ccccc2)c1 | inactive: 1.2% |  |
| Nc1cccc2c([As](=O)(O)O)cccc12 | inactive: -27.1% |  |
| Cc1ccc(NCCc2c([N+](=O)[O-])cc([N+](=O)[O-])cc2[N+](=O)[O-])cc1 | inactive: -1.24% |  |
| CCCOP(=S)(Nc1nc(N)cc(=O)[nH]1)OCCC | inactive: -14.7% |  |
| COc1cc(C2NCCC3(OCCO3)C2(C)C)cc(OC)c1OC (centres undefined) | inactive: 6.16% |  |
| CCOP(=O)(Nc1cccc2ccccc12)OCC | inactive: -1.56% |  |
| Cc1c2c(nc3ccccc13)SC(C(Cl)Cl)C2 (centres undefined) | inactive: 4.87% |  |
| O=C(OC1CN2CCC1CC2)C12CC3CC(CC(C3)C1)C2 (centres undefined) | inactive: 18.4% |  |
| Cc1cc(=O)[nH]c(N[N+](=O)[O-])n1 | inactive: -5.31% |  |
